We go through one compound from ChEMBL document CHEMBL5360531, “Pyrazolone derivatives as potent and selective small-molecule SIRT5 inhibitors” (Eur J Med Chem, 2023).

Protein sequences, listed by entry. Tags and fused reporters are not part of them.
UniProt Q8N6T7, whole entry: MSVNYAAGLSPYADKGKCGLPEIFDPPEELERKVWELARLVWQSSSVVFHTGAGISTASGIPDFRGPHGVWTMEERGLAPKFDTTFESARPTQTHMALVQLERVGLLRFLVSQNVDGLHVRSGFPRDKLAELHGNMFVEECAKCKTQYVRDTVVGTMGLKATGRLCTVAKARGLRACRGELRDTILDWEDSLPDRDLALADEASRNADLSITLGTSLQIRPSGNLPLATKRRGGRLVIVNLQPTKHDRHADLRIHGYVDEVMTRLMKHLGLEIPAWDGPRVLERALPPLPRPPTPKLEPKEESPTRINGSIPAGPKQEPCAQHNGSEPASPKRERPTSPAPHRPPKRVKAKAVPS

Test [1] deals with NAD-dependent protein deacylase sirtuin-6 (Homo sapiens) (UniProt Q8N6T7). As to the kind of experiment: Inhibition of human SIRT6 at 800 uM by fluorescence based analysis.
In test [2] the target is T1, NAD-dependent protein deacetylase sirtuin-2 (Homo sapiens) (UniProt Q8IXJ6).
T1 sequence (whole entry): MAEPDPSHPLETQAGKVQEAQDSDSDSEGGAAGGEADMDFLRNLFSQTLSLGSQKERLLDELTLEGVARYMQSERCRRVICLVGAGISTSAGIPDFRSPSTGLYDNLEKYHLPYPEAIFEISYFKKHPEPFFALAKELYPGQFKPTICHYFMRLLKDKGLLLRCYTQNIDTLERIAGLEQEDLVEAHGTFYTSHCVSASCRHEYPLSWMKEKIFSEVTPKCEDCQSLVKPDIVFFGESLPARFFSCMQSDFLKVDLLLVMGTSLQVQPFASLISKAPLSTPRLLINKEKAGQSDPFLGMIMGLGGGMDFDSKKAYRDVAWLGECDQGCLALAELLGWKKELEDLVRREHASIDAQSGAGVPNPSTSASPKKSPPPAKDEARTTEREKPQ
Kind of test: Inhibition of human SIRT2 at 800 uM by fluorescence based analysis.

Active and inactive are the calls of the source. The calls are words filed in the database; no cut-off is given here.

Regarding `CC1=NN(c2nc(-c3ccc(Cl)cc3)cs2)C(=O)/C1=C/c1ccc(C(=O)O)cc1`, the inhibition entry in test [1] and in test [2] was “inactive” each time.
